Target: T1, human CLR/RAMP2 (Homo sapiens, UniProt O60895+Q16602)
T1 construct: host or cells: CHO-K1 cells (PathHunter β-Arrestin cell line)
Test: CLR/RAMP2 receptor-activation assay (PathHunter β-Arrestin)
Type: cell-based
Protocol: The bioactivity of peptide analogs was studied using CLR/RAMP1, CLR/RAMP2, and CLR/RAMP3 assays by DiscoveRx (Fremont, CA, USA) in cells that stably express human CLR/RAMP1 (1321N1 cells), CLR/RAMP2 (CHO-K1 cells), or CLR/RAMP3 (CHO-K1 cells). The dose-dependent stimulatory effect of agonists was studied in duplicate, at 10 different concentrations. Determination of the half-maximal effective concentration (EC50) was performed using a 10-point dose-response curves. The starting concentration was 1.0 μM, and it was serially diluted 3-fold, in DMSO.
In this assay, the CLR was fused in frame with a small enzyme donor fragment ProLink™ (PK). The receptor was co-expressed with a fusion protein of β-arrestin and an N-terminal deletion mutant of β-galactosidase (i.e., enzyme acceptor). Activation of the CLR/RAMP2 receptor stimulated the binding of β-arrestin to the PK-tagged receptor and led to an increase in enzyme activities which can then be measured with the PathHunter detection reagents. PathHunter cell lines were seeded in a total volume of 20 μL into 384-well microplates and incubated at 37 °C prior to the assay. Intermediate dilution of samples was performed to generate 5X samples in the assay buffer. A 5 μL aliquot of 5X sample was added to cells and incubated at 37 °C for 90 min. Vehicle concentration was 1%.

Amino acid sequences for entries named in this document (tags omitted). Residues count along the entry.
UniProt O60895, 43-175: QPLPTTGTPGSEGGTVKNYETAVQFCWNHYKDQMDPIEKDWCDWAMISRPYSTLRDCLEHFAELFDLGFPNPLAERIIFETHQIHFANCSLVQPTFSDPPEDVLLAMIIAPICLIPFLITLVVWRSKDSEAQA
UniProt Q16602, 23-461: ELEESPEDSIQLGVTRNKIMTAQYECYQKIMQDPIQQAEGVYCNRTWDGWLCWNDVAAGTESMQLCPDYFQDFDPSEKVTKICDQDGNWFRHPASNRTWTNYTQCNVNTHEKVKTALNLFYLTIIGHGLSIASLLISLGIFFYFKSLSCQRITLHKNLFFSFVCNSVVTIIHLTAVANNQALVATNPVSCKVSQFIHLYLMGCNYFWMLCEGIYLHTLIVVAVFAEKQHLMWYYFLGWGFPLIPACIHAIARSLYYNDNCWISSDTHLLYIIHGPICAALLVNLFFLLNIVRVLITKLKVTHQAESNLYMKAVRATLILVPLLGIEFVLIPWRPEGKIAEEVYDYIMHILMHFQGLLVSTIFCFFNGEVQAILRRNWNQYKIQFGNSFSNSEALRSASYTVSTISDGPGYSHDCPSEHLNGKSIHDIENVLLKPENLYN

Question: `CCCCCCCCCCCCCCCC(=O)NCCCC[C@H](NC(=O)COCCOCCN)C(=O)N[C@H](C(=O)N[C@@H](CCCCN)C(=O)N[C@@H](CCCCN)C(=O)N[C@H](C(=O)N[C@@H](CC(C)C)C(=O)N[C@@H](CCCNC(=N)N)C(=O)N[C@H](C(=O)NCC(=O)N[C@H]1CSSC[C@@H](C(=O)N[C@H](C(=O)N[C@H](C(=O)N[C@@H](CCC(N)=O)C(=O)N[C@@H](CCCCN)C(=O)N[C@@H](CC(C)C)C(=O)N[C@@H](C)C(=O)N[C@@H](Cc2c[nH]cn2)C(=O)N[C@@H](CCC(N)=O)C(=O)N[C@H](C(=O)N[C@@H](Cc2ccc(O)cc2)C(=O)N[C@@H](CCC(N)=O)C(=O)N[C@@H](Cc2ccccc2)C(=O)N[C@H](C(=O)N[C@@H](CC(=O)O)C(=O)N[C@@H](CCCCN)C(=O)N[C@@H](CC(=O)O)C(=O)N[C@@H](CCCCN)C(=O)N[C@@H](CC(=O)O)C(=O)N[C@@H](CC(N)=O)C(=O)N[C@H](C(=O)N[C@@H](C)C(=O)N2CCC[C@H]2C(=O)N[C@@H](CCCNC(=N)N)C(=O)N[C@@H](CO)C(=O)N[C@@H](CCCCN)C(=O)N[C@H](C(=O)N[C@@H](CO)C(=O)N2CCC[C@H]2C(=O)N[C@@H](CCC(N)=O)C(=O)NCC(=O)N[C@@H](Cc2ccc(O)cc2)C(N)=O)[C@@H](C)CC)C(C)C)[C@@H](C)O)[C@@H](C)CC)C(C)C)[C@@H](C)O)NC(=O)[C@H]([C@@H](C)O)NC(=O)CNC(=O)[C@H](Cc2ccccc2)NC(=O)[C@H](CCCNC(=N)N)NC1=O)[C@@H](C)O)[C@@H](C)O)[C@@H](C)O` [Analog C-8] was tested. Which EC50 did it give?
Answer: Its EC50 is 1.1 nM.

Reference: PMC9655119, “Sustained Activation of CLR/RAMP Receptors by Gel-Forming Agonists” (International Journal of Molecular Sciences, 2022)
